Earlier results, collected in publication PMC4217481 (Nuclear medicine and biology, 2013).

Test system: bone
Conditions: mouse, in vivo

- bone uptake: 2.49 %ID/g
Substance: ^18F-FDG
